For 72 molecules, activity change, negative = inhibition results are on record in PubChem BioAssay AID624170 (National Center for Advancing Translational Sciences (NCATS), 2012).

Sequences of proteins named here, by UniProt entry; tags and fusion partners are left off.
UniProt O94925, whole entry: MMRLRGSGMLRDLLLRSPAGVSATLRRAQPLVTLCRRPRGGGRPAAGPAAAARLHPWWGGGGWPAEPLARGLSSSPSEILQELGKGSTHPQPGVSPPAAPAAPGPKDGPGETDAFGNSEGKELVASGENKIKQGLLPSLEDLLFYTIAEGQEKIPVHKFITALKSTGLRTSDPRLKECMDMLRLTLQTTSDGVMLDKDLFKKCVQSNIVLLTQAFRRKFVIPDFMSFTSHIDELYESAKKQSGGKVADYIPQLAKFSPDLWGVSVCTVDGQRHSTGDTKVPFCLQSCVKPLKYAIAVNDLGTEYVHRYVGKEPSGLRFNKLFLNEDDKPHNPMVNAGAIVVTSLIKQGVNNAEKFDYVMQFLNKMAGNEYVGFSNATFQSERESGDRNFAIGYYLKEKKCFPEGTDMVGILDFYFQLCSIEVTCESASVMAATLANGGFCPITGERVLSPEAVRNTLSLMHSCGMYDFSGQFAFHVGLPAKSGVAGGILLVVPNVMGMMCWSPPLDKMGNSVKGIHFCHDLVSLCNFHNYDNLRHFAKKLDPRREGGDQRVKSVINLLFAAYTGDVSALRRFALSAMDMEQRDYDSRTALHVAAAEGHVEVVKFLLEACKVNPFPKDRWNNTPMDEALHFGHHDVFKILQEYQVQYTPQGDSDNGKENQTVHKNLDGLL

In the test the target is Glutaminase kidney isoform, mitochondrial (Homo sapiens) (UniProt O94925). Nature of the test: qHTS for Inhibitors of Glutaminase (GLS). Particulars: GLS enzymatic activity, qHTS titration.
The mark [1] stands for this setting: at 45.5 µM (top of the series) unless noted.

The list shows a part of the results, in another mix than the full data. Results filed as inconclusive are left out. Active and inactive are the calls of the source. Calls follow the shape of the dose curve; as a rule, active = well fitted inhibition curve with a large enough effect; inconclusive = small, poorly fitted or top-dose-only effect, or another doubt; inactive = no such curve, though single readings can be large or run the other way.
% is scaled to controls: 0 for no effect and ±100 for the full control effect.

Take `CC1=C2N=C(C=C3N=C(C(C)=C4[N-][C@@](C)([C@@H]5N=C1[C@](C)(CCC(=O)NC[C@@H](C)OP(=O)([O-])O[C@H]1[C@@H](O)[C@@H](n6cnc7cc(C)c(C)cc76)O[C@@H]1CO)[C@H]5CC(N)=O)[C@@](C)(CC(N)=O)[C@@H]4CCC(N)=O)[C@@](C)(CC(N)=O)[C@@H]3CCC(N)=O)C(C)(C)[C@@H]2CCC(N)=O.[C-]#N.[Co+3]`: the activity change, negative = inhibition under setting [1] is inactive: -1.33%.
Same read-out and setting: under `CN1CCCCC1COC(=O)C1(O)c2ccccc2CCc2ccccc21` (stereo not drawn) stands inactive: 4.53%; under `COc1ccccc1OP(C)(=O)Nc1c(C)cccc1C` (stereo not drawn), inactive: -6.4%; under `CP(=O)(Nc1ccc(SC(F)(F)F)cc1)Oc1ccccc1` (stereo not drawn), inactive: 1.14%.
Same read-out and setting: to `CCCOc1ccc(NP(C)(=O)Oc2ccc(Cl)cc2)cc1` (stereo not drawn) belongs inactive: 4.03%; to `O=[N+]([O-])c1cc([N+](=O)[O-])c(-n2nnc3ccccc32)c([N+](=O)[O-])c1`, inactive: 20.8%; to `CN(Cc1cccnc1)C(=O)COc1ccc(Cl)c(Cl)c1.O=[N+]([O-])c1cc([N+](=O)[O-])c(O)c([N+](=O)[O-])c1`, inactive: 13%.
The same measure, in the same setting: under `CC(C)N(CCCl)C(C)C` stands inactive: -0.546%.
Turning to `O=[N+]([O-])c1cc([N+](=O)[O-])c(-c2cnn(-c3ccccc3)c2)c([N+](=O)[O-])c1`, under setting [1], the activity change, negative = inhibition was inactive: 6.89%.
Same read-out and setting: under `Cc1nc2ccc3ccccc3c2s1.O=[N+]([O-])c1cc([N+](=O)[O-])c(O)c([N+](=O)[O-])c1` stands inactive: 18.3%.
Still for that read-out and setting: to `COc1ccccc1OP(C)(=O)Nc1cccc(Br)c1` (stereo not drawn) belongs inactive: -7.96%.
The same measure, in the same setting: to `Cc1cc(C)cc(OP(C)(=O)Nc2ccc(C)cc2C)c1` (stereo not drawn) belongs inactive: 0.41%.
For `CCOC(=O)c1ccc(NP(C)(=O)Oc2cc(C)cc(C)c2)cc1` (stereo not drawn), the activity change, negative = inhibition under setting [1] was inactive: 7.3%.
Same read-out and setting: to `CP(=O)(Nc1cccc(Br)c1)Oc1ccccc1` (stereo not drawn) belongs inactive: -3.18%; to `Cc1cc(C)cc(OP(C)(=O)Nc2ccccn2)c1` (stereo not drawn), inactive: 10%; to `Cc1ccc(C)c(NP(C)(=O)Oc2ccccc2)c1` (stereo not drawn), inactive: 15.3%.
Turning to `O=[N+]([O-])c1cccc([N+](=O)[O-])c1`, the activity change, negative = inhibition is, setting by setting: (at 45.5 µM (top of the series)) inactive: -13.4%; (at 99.4 µM (top of the series)) inactive: -5.18%.
For the molecule `O=[N+]([O-])OCC(CO[N+](=O)[O-])(CO[N+](=O)[O-])CO[N+](=O)[O-]`, under setting [1], the activity change, negative = inhibition is inactive: -2.43%.
The same measure, in the same setting: to `CC1=NCCc2c1[nH]c1ccccc21.O=[N+]([O-])c1cc([N+](=O)[O-])c(O)c([N+](=O)[O-])c1` belongs inactive: 0.316%; to `Cc1cccc([N+](=O)[O-])c1[N+](=O)[O-]`, inactive: -4.78% [at 99.4 µM]; to `COc1ccc(OP(C)(=O)Nc2ccc(SC(F)(F)F)cc2)cc1` (stereo not drawn), inactive: -10.5%.
On to `CCOC(=O)c1ccc(NP(C)(=O)Oc2ccc(F)cc2)cc1` (stereo not drawn), for which the activity change, negative = inhibition under setting [1] was inactive: -7.95%.
Same read-out and setting: to `CCN(CC)CCCOC(=O)C(O)(c1ccccc1)C1CCCCC1` (stereo not drawn) belongs inactive: 20.5%; to `Cc1c([N+](=O)[O-])cc([N+](=O)[O-])c(Br)c1[N+](=O)[O-]`, inactive: -18.1%; to `CCCCCOc1ccc(NP(C)(=O)Oc2ccc(Cl)cc2Cl)cc1` (stereo not drawn), inactive: 8.15%.
Same read-out and setting: under `CP(=O)(Nc1ccccc1)Oc1ccc(F)cc1` (stereo not drawn) stands inactive: 1.52%; under `CC(C)c1ccc(OP(C)(=O)Nc2ccc(SC(F)(F)F)cc2)cc1` (stereo not drawn), inactive: -1.9%; under `CP(=O)(Nc1ccccc1F)Oc1ccccc1` (stereo not drawn), inactive: 4.3%.
With `O=C(OCCN1CCN(CCOCc2ccccc2)CC1)C(O)(c1ccccc1)c1ccccc1`, under setting [1], the activity change, negative = inhibition was inactive: 9.28%.
Regarding `CCOP(=O)(CC)Oc1ccc([N+](=O)[O-])cc1` (stereo not drawn), the activity change, negative = inhibition under setting [1] is inactive: -2.86%.
Still for that read-out and setting: to `CP(=O)(Nc1ccc(SC(F)(F)F)cc1)Oc1ccc(F)cc1` (stereo not drawn) belongs inactive: -5.46%.
For the molecule `CCOP(C)(=S)SCC(=O)NC(C)(CC)C(=O)O` (stereo not drawn), the activity change, negative = inhibition under setting [1] is inactive: 8.5%.
As to `CP(=O)(Nc1ccc2c(c1)OCCO2)Oc1ccccc1` (stereo not drawn), the activity change, negative = inhibition under setting [1] is inactive: 23.5%.
Still for that read-out and setting: under `O=[N+]([O-])c1cc([N+](=O)[O-])c(C(F)(F)F)c([N+](=O)[O-])c1O` stands inactive: 33.2%; under `Cc1ccccc1NP(C)(=O)Nc1ccccc1C`, inactive: 3.99%; under `COc1ccc(OP(C)(=O)Nc2cccc(Br)c2)cc1` (stereo not drawn), inactive: -0.803%.
On the same count and under the same terms, under `COc1ccc(NP(C)(=O)Oc2ccccc2OC)cc1` (stereo not drawn) stands inactive: -2.69%.
Same read-out and setting: under `CN(C)CCOC(=O)C(O)(c1ccccc1)C1CCCCC1` (stereo not drawn) stands inactive: 10.2%; under `Cc1cc(-c2cccc3ccccc23)c(C)cn1.O=[N+]([O-])c1cc([N+](=O)[O-])c(O)c([N+](=O)[O-])c1`, inactive: -9.98%; under `O=[N+]([O-])c1ccc(OP2(=O)COCCO2)cc1` (stereo not drawn), inactive: 4.72%.
For the molecule `Cc1c(C(c2ccc3c(c2)OCO3)c2c(C)n(C)n(-c3ccccc3)c2=O)c(=O)n(-c2ccccc2)n1C.O=[N+]([O-])c1cc([N+](=O)[O-])c(O)c([N+](=O)[O-])c1`, under setting [1], the activity change, negative = inhibition is inactive: -2.45%.
On the same count and under the same terms, under `Nc1ccc2c(ccc3cccnc32)n1.O=[N+]([O-])c1cc([N+](=O)[O-])c(O)c([N+](=O)[O-])c1` stands inactive: 4.38%; under `CP(=O)(OC12CC3CC(CC(C3)C1)C2)OC12CC3CC(CC(C3)C1)C2`, inactive: 0.183%.
Same read-out and setting: to `CCOC(=O)c1ccc(NP(C)(=O)Oc2ccc(Cl)cc2)cc1` (stereo not drawn) belongs inactive: -1.45%; to `C/C1=C2N=C(/C=C3N=C(/C(C)=C4\[N-][C@@](C)([C@H]5N=C1[C@@](C)(CCC(=O)NC[C@H](C)OP(=O)([O-])O[C@@H]1[C@H](O)[C@H](n6cnc7cc(C)c(C)cc76)O[C@@H]1CO)[C@@H]5CC(N)=O)[C@](C)(CC(N)=O)[C@H]4CCC(N)=O)[C@@](C)(CC(N)=O)[C@@H]\3CCC(N)=O)C(C)(C)[C@@H]/2CCC(N)=O.[C-]#N.[Co+3]`, inactive: 0.437% [at 20 µM]; to `CC(C)OP(=O)(F)OC(C)C`, inactive: 4.9%.
Same read-out and setting: under `N#[O+].[C-]#N.[C-]#N.[C-]#N.[C-]#N.[C-]#N.[Fe+2].[Na+].[Na+]` stands inactive: 11.5%; under `CCN(CC)CC(O)COC(=O)C(O)(c1ccccc1)C1CCCCC1` (stereo not drawn), inactive: 0.592%; under `COc1ccc(OP(C)(=O)Nc2ccc(Br)cc2)cc1` (stereo not drawn), inactive: 1.79%.
`CP(=O)(Oc1ccccc1)N1CCOC1=O` (stereo not drawn): the activity change, negative = inhibition under setting [1] was inactive: -1.13%.
With `CCc1ccc(OP(C)(=O)Nc2cccnc2)cc1` (stereo not drawn), the activity change, negative = inhibition under setting [1] is inactive: -9.67%.
The same measure, in the same setting: under `COc1ccccc1OP(C)(=O)Nc1c(C)n(C)n(-c2ccccc2)c1=O` (stereo not drawn) stands inactive: 52.2%; under `O=C(OCCCN1CCCC1)C(O)(c1ccccc1)C1CCCCC1` (stereo not drawn), inactive: 9.37%; under `OCCSCCO`, inactive: 6.18%.
Same read-out and setting: to `CP(=O)(Nc1ccc(Cl)cc1)Oc1ccc(F)cc1` (stereo not drawn) belongs inactive: 3.64%; to `CC(C)(C)c1ccc(OP(C)(=O)O)cc1`, inactive: 1.34%.
Still for that read-out and setting: to `COc1ccccc1OP(C)(=O)Nc1ccccc1Br` (stereo not drawn) belongs inactive: -10.9%; to `CN(C)C(=O)c1c([N+](=O)[O-])cc([N+](=O)[O-])cc1[N+](=O)[O-]`, inactive: 4.08%; to `COc1ccccc1OP(C)(=O)Nc1ccc(Br)cc1` (stereo not drawn), inactive: 0.841%.
Regarding `CN(C)CCOC(=O)C(O)(c1ccccc1)C1CCCC1` (stereo not drawn), the activity change, negative = inhibition under setting [1] is inactive: 5.29%.
Turning to `COc1ccc(OP(C)(=O)Nc2ccccn2)cc1` (stereo not drawn), the activity change, negative = inhibition under setting [1] was inactive: -5.09%.
For `O=[N+]([O-])c1cc([N+](=O)[O-])c(Nc2ccccn2)c([N+](=O)[O-])c1`, under setting [1], the activity change, negative = inhibition was inactive: 16%.
For `Cc1c(NP(C)(=O)Oc2ccc(C(C)C)cc2)c(=O)n(-c2ccccc2)n1C` (stereo not drawn), the activity change, negative = inhibition under setting [1] is inactive: 16.7%.
In the case of `CCc1ccc(OP(C)(=O)O)cc1`, under setting [1], the activity change, negative = inhibition was inactive: 3.46%.
The same measure, in the same setting: under `CP(=O)(Nc1ccccn1)Oc1ccccc1` (stereo not drawn) stands inactive: 0.664%.
On the same count and under the same terms, to `COc1ccccc1OP(C)(=O)Nc1ccc(C)cc1C` (stereo not drawn) belongs inactive: 8.31%; to `Cc1cc(C)cc(OP(C)(=O)Nc2cccc(C(F)(F)F)c2)c1` (stereo not drawn), inactive: -8.33%.
On the same count and under the same terms, under `COc1ccc(OP(C)(=O)Nc2ccccc2Br)cc1` (stereo not drawn) stands inactive: 3.86%; under `COc1ccccc1OP(C)(=O)Nc1ccc(C)c(C)c1` (stereo not drawn), inactive: 9.9%.
As to `CP(=O)(OCCOc1ccccc1)OCCOc1ccccc1`, the activity change, negative = inhibition under setting [1] was inactive: 2.67%.
As for `CP(=O)(Nc1ccc(Cl)cc1Cl)Oc1ccccc1` (stereo not drawn), the activity change, negative = inhibition under setting [1] is inactive: -8.81%.
Same read-out and setting: under `CCCCCCCCCCCCCCCC1C[N+](C)(C)CCOP(C)(=O)O1` (stereo not drawn) stands inactive: -0.205%.
